Literature values, collected in patent publication US6861524B2, “Acyl and sulfonyl derivatives of 6,9-disubstituted 2-(trans-1,4-diaminocyclohexyl)-purines and their use as antiproliferative agents” (Aventis Pharmaceuticals Inc., priority 2000, dated 2005).

System: herpes simplex virus
Conditions: Schang et al. 1998; cited from earlier work

SMILES: CCC(CO)Nc1nc(NCc2ccccc2)c2ncn(C(C)C)c2n1 (stereo not shown) [roscovitine, 2-(1-ethyl-2-hydroxyethylamino)-6-benzylamino-9-isopropylpurine]
- replication of herpes simplex virus: inhibited the replication
